Experimental findings from paper PMC11594144, “Biophysical Analysis of Vip3Aa Toxin Mutants Before and After Activation” (2024) are described below.

The target of test [1] is Vip3Aa64 protoxin N242C (Bacillus thuringiensis). In words: mass photometry.
Test [2] has the same target. Put plainly: AUC.
Test [3] has as its target Vip3Aa64 protoxin F229Y (Bacillus thuringiensis). Put plainly: mass photometry.
The target is the same in test [4]. In words: AUC.
For test [5], the target named is Vip3Aa64 protoxin E168C:N242C (Bacillus thuringiensis). Put plainly: mass photometry.
Test [6] shares this target. In words: AUC.
Test [7] addresses Vip3Aa64 protoxin T167C (Bacillus thuringiensis). Put plainly: mass photometry.
Test [8] shares this target. Put plainly: AUC.
Test [9] addresses Vip3Aa64 protoxin E168C (Bacillus thuringiensis). In words: mass photometry.
Test [10] shares this target. Put plainly: AUC.

Where “and” joins values, the source holds several entries; their conditions need not be identical. Equal entries are not always repeated.

As usually defined, the stoichiometry N is the number of molecules, sites or subunits per partner or assembly. Consider “Vip3Aa64 protoxin N242C (natural protein)”, for which the stoichiometry N in [1] and in test [2] was 4 throughout.

Consider “Vip3Aa64 protoxin F229Y (natural protein)”, for which the stoichiometry N was 4 and 2 in [3]; 4 and 2 in test [4].

As for “Vip3Aa64 protoxin E168C:N242C (natural protein)”, the stoichiometry N in test [5] and in test [6] was 4 throughout.

For the substance “Vip3Aa64 protoxin T167C (natural protein)”, the stoichiometry N in [7] and in test [8] was 4 throughout.

As to “Vip3Aa64 protoxin E168C (natural protein)”, the stoichiometry N in test [9] is 4 and 2; in test [10], 4 and 2.
